Literature values in US6177437A, “Inhibitors of Herpes Simplex virus uracil-DNA glycosylase” (University of Massachusetts Medical Center, priority 1999, dated 2001).

Chains of the proteins cited; added tags and fusions are not shown. Lines headed by an entry give the natural chain unless they say otherwise; changes in a name come on top.
UniProt P10186: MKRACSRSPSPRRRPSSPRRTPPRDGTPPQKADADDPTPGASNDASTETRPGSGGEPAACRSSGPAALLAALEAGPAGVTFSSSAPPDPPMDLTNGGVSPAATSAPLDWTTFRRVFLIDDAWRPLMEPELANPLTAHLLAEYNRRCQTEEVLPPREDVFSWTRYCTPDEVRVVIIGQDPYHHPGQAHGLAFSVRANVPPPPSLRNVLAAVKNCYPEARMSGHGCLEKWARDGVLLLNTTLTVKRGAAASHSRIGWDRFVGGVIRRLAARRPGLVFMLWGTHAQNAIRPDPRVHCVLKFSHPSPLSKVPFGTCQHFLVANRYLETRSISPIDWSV

Target: T1, HSV1 uracil-DNA glycosylase (HSV1 UDG) (Human herpesvirus 1, UniProt P10186)
T1 construct: made in house
Details: cited from earlier work

CCCCc1ccc(Nc2cc(=O)[nH]c(=O)[nH]2)cc1 [Compound 3]
IC50: 150 µM
